Experimental data: patent publication US11001609B2, “Cell permeable cyclic peptide scaffolds” (priority 2017, dated 2021)

Assay type: in vitro ADME
Conditions: not given

With LA02, M1, 1, P, LA08, F [Compound 886] as the substance, how does the “Permeability Value” read?
The value was 33.99 nm/s.

Which “Permeability Value” does the source give for LA02, M1, BHF, P, M1, F [Compound 98] here?
The value was 204.2 nm/s.

Which “Permeability Value” does the source give for LA02, M1, BHF, P, M1, F [Compound 188] here?
The value was 170.1 nm/s.

For LA02, M1, BHF, P, M1, F [Compound 338], which “Permeability Value” is on record?
Its value is 133.2 nm/s.

For LA02, M1, BHF, P, M1, F [Compound 582], which “Permeability Value” is on record?
The value was 88.02 nm/s.

Which “Permeability Value” does the source give for LA02, M1, BHF, P, M1, F [Compound 615] here?
The value was 81.27 nm/s.

Which “Permeability Value” does the source give for LA02, M1, BHF, p, M1, F [Compound 271] here?
Its value is 146 nm/s.

For LA02, M1, BHF, p, M1, F [Compound 304], which “Permeability Value” is on record?
Its value is 139.4 nm/s.

With LA02, M1, BHF, p, M1, F [Compound 758] as the substance, how does the “Permeability Value” read?
Its value is 56.04 nm/s.

With LA02, M1, BHF, p, M1, F [Compound 850] as the substance, how does the “Permeability Value” read?
Its value is 39.44 nm/s.

Which “Permeability Value” does the source give for LA02, M1, BHF, p, M1, F [Compound 923] here?
Its value is 28.65 nm/s.

With “LA02, ML***, 1, p, LA08, F [Compound 189]” as the substance, how does the “Permeability Value” read?
The value was 169.9 nm/s.

For “LA02, ML***, 1, p, LA08, F [Compound 367]”, which “Permeability Value” is on record?
The value was 127.7 nm/s.

With “LA02, ML***, BHF, P, L***, F [Compound 698]” as the substance, how does the “Permeability Value” read?
The value was 67.91 nm/s.

For “LA02, ML***, BHF, p, M1, F [Compound 930]”, which “Permeability Value” is on record?
The value was 27.44 nm/s.

Which “Permeability Value” does the source give for Ma, LA08, 1, P, M1, F [Compound 144] here?
Its value is 185.6 nm/s.

With Ma, LA08, 1, P, M1, F [Compound 252] as the substance, how does the “Permeability Value” read?
The value was 153.8 nm/s.

With Ma, LA08, 1, p, ML***, F [Compound 355] as the substance, how does the “Permeability Value” read?
The value was 130.5 nm/s.

For Ma, LA08, 1, p, ML***, F [Compound 463], which “Permeability Value” is on record?
Its value is 110.1 nm/s.

With a, LA08, 1, P, LA08, F [Compound 711] as the substance, how does the “Permeability Value” read?
The value was 65.42 nm/s.

Which “Permeability Value” does the source give for a, LA08, 1, P, LA08, F [Compound 763] here?
Its value is 55.64 nm/s.

For “a, LA08, L***, P, LA08, F [Compound 453]”, which “Permeability Value” is on record?
Its value is 111.3 nm/s.

Which “Permeability Value” does the source give for “a, LA08, L***, P, LA08, F [Compound 623]” here?
The value was 80.48 nm/s.

Which “Permeability Value” does the source give for a, LA08, LA08, p, 1, F [Compound 667] here?
Its value is 73.02 nm/s.

With a, LA08, LA08, p, 1, F [Compound 771] as the substance, how does the “Permeability Value” read?
Its value is 53.98 nm/s.

Which “Permeability Value” does the source give for a, LA08, M1, P, L***, F [Compound 288] here?
The value was 143.6 nm/s.

For a, LA08, M1, P, L***, F [Compound 292], which “Permeability Value” is on record?
Its value is 142.9 nm/s.

For a, LA08, M1, P, LA08, F [Compound 552], which “Permeability Value” is on record?
Its value is 94.32 nm/s.

Which “Permeability Value” does the source give for a, LA08, M1, P, LA08, F [Compound 811] here?
The value was 48.88 nm/s.

Same assay, conditions: PAMPA Pe; 1% lecithin in n-dodecane, PBS with 5% DMSO, 25° C., 18 hours; corrected on 1NMe3 standard

Which “Permeability Value” does the source give for LA02, M1, BHF, P, L***, F [Compound 77] here?
Its value is 218.6 nm/s.

With LA02, M1, BHF, p, 1, F [Compound 489] as the substance, how does the “Permeability Value” read?
The value was 106.1 nm/s.

For “LA02, M1, L***, P, LA08, F [Compound 485]”, which “Permeability Value” is on record?
The value was 106.5 nm/s.

Which “Permeability Value” does the source give for “LA02, M1, L***, P, LA08, F [Compound 616]” here?
Its value is 81.19 nm/s.

Which “Permeability Value” does the source give for LA02, M1, LA08, p, 1, F [Compound 507] here?
The value was 103.6 nm/s.

For “LA02, M1, LA08, p, LA08, F [Compound 477]”, which “Permeability Value” is on record?
The value was 108.1 nm/s.

Which “Permeability Value” does the source give for “LA02, M1, LA08, p, LA08, F [Compound 520]” here?
Its value is 99.88 nm/s.

For “LA02, M1, LA08, p, LA08, F [Compound 644]”, which “Permeability Value” is on record?
The value was 76.89 nm/s.

With “LA02, ML***, BHF, p, 1, F [Compound 558]” as the substance, how does the “Permeability Value” read?
Its value is 92.4 nm/s.

Which “Permeability Value” does the source give for “LA02, ML***, LA08, P, LA08, F [Compound 682]” here?
Its value is 70.36 nm/s.

Which “Permeability Value” does the source give for “LA02, ML***, LA08, P, LA08, F [Compound 687]” here?
Its value is 69.44 nm/s.

Which “Permeability Value” does the source give for MA, LA08, 1, p, LA08, F [Compound 755] here?
The value was 56.28 nm/s.

Which “Permeability Value” does the source give for “MA, LA08, ML***, P, M1, F [Compound 754]” here?
The value was 56.43 nm/s.

With “MA, LA08, ML***, p, ML***, F [Compound 468]” as the substance, how does the “Permeability Value” read?
Its value is 109.5 nm/s.

With “MA, ML***, BHF, p, LA08, F [Compound 649]” as the substance, how does the “Permeability Value” read?
Its value is 76.08 nm/s.

Which “Permeability Value” does the source give for “MA, ML***, BHF, p, LA08, F [Compound 746]” here?
Its value is 57.96 nm/s.

Which “Permeability Value” does the source give for Ma, LA08, M1, P, L***, F [Compound 131] here?
The value was 189.1 nm/s.

With Ma, LA08, M1, P, M1, F [Compound 159] as the substance, how does the “Permeability Value” read?
Its value is 179.5 nm/s.

Which “Permeability Value” does the source give for a, LA08, 1, p, M1, F [Compound 751] here?
The value was 57.22 nm/s.

With “a, LA08, BHF, p, ML***, F [Compound 760]” as the substance, how does the “Permeability Value” read?
The value was 55.96 nm/s.

With “a, LA08, LA08, P, ML***, F [Compound 372]” as the substance, how does the “Permeability Value” read?
Its value is 126 nm/s.

Same assay, conditions: PAMPA Pe; 1% lecithin in n-dodecane, PBS with 5% DMSO, 25° C., 18 hours; corrected to 1NMe3 standard

Which “Permeability Value” does the source give for “LA02, ML***, BHF, p, LA08, F [Compound 935]” here?
Its value is 26.31 nm/s.

With “LA02, ML***, LA08, p, L***, F [Compound 883]” as the substance, how does the “Permeability Value” read?
The value was 34.23 nm/s.

For “MA, LA08, L***, p, LA08, F [Compound 1006]”, which “Permeability Value” is on record?
Its value is 13.15 nm/s.

For “MA, LA08, M1, p, LA08, F [Compound 1051]”, which “Permeability Value” is on record?
Its value is 3.421 nm/s.

Which “Permeability Value” does the source give for Ma, LA08, BHF, p, M1, F [Compound 947] here?
The value was 24.59 nm/s.

Which “Permeability Value” does the source give for “Ma, LA08, BHF, p, ML***, F [Compound 849]” here?
The value was 39.87 nm/s.

With Ma, M1, BHF, p, LA08, F [Compound 966] as the substance, how does the “Permeability Value” read?
The value was 21.31 nm/s.
